Test results taken from article PMC5161041 (Journal of medicinal chemistry, 2016).

Chains of the proteins cited; added tags and fusions are not shown. Residues count along the entry.
UniProt Q63380, 1-617: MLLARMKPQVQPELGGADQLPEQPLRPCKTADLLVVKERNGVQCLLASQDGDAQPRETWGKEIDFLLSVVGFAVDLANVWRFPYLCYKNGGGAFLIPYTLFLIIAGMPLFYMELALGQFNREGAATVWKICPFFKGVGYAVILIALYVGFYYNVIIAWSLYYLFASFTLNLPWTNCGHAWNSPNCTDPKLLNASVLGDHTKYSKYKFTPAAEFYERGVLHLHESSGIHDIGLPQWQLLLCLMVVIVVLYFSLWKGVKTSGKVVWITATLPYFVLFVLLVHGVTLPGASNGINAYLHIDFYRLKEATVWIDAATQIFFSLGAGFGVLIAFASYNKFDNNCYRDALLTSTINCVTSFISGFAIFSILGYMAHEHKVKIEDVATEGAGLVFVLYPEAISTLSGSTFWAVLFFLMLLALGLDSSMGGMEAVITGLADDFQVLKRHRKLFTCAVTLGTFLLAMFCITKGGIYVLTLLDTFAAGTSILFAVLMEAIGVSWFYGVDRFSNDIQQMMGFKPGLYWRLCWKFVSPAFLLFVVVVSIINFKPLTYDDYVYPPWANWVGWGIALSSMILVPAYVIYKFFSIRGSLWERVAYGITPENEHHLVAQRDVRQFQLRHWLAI

Target: NET (Rattus norvegicus, UniProt Q63380)
Assay: NET binding assay, [3H]nisoxetine, rat frontal cortex membranes
Settings: read-out: Ki NET (class IA)

NC(=O)C[S+]([O-])C(c1ccccc1)c1ccccc1 (stereo not shown) [Compound 2, 2-[(diphenylmethyl)sulfinyl]acetamide, reference compound]
inhibition at 100 µM: < 50%
